Data from patent US7626033B2, “Compounds for the modulation of PPARγ activity” (AMGEN INC., priority 1999, dated 2009).

Sequences of proteins named here, by UniProt entry; tags and fusion partners are left off.
UniProt P37231, whole entry: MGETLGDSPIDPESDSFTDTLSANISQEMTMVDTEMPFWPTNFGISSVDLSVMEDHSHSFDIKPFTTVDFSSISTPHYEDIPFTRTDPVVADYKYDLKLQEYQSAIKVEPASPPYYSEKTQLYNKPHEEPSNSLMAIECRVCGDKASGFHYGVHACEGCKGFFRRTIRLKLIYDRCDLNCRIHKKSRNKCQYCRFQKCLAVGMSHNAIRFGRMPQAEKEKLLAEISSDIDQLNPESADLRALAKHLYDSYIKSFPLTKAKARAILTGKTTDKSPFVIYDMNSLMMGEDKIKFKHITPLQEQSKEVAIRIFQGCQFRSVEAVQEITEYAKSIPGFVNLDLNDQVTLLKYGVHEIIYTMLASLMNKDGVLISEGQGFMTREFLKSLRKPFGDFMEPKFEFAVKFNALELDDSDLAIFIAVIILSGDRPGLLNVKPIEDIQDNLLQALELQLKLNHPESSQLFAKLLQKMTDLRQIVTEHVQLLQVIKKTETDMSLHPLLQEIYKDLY

Tests used:
[1] = target: PPARγ (UniProt P37231); assay: PPARγ ligand binding assay utilizing [3H]-BRL 49653 as the radioligand; details: concentration reducing by 50% the specific binding of [3H]-BRL 49653
[2] = test system: KK-Ay mice; assay: anti-diabetic efficacy in KK-Ay mice (change in serum glucose levels); details: change in serum glucose levels compared to untreated control animals, 0.018% (30 mg/kg) dietary admixture in powdered diet

| Compound | IC50 [1] [nM] | KKAy Glucose [2] |
| --- | --- | --- |
| O=S(=O)(Nc1ccc(Sc2ccc(Cl)c(Cl)c2)c(Cl)c1)c1ccc(Cl)cc1Cl | < 1000 | – |
| O=S(=O)(Nc1ccc(Sc2ccc(Cl)c(Cl)c2)c(Cl)c1)c1ccc(I)cc1 | < 10000 | – |
| Cc1ccc2sc(Sc3c(Cl)cc(NS(=O)(=O)c4ccc(C(F)(F)F)cc4Cl)cc3Cl)nc2c1 | < 1000 | – |
| Cc1cc(S(=O)(=O)Nc2cc(Cl)c(Oc3cnc4ccccc4c3)c(Cl)c2)c(Cl)cc1Cl | < 1000 | ++ ((++) glucose lowering >20%) |
| O=S(=O)(Nc1ccc(Sc2ccc(Cl)c(Cl)c2)c(Cl)c1)c1ccc(Cl)c(Cl)c1 | < 10000 | – |
| O=S(=O)(Nc1cc(Cl)c(Oc2cnc3ccccc3c2)c(Cl)c1)c1ccc(Cl)cc1Cl | – | ++ ((++) glucose lowering >20%) |
| Cc1ccc2nc(Nc3c(Cl)cc(NS(=O)(=O)c4ccc(C(F)(F)F)cc4Cl)cc3Cl)sc2c1 | < 1000 | − ((−) <10%) |
| Nc1cc(Cl)c(Oc2nc3ccc(Cl)cc3s2)c(Cl)c1 | < 10000 | + ((+) 10% to 20%) |
